Results as given in BindingDB's records for 3965704.

Amino acid sequences for entries named in this document (tags omitted). Residues count along the entry.
UniProt P37136, 32-614 limits assumed: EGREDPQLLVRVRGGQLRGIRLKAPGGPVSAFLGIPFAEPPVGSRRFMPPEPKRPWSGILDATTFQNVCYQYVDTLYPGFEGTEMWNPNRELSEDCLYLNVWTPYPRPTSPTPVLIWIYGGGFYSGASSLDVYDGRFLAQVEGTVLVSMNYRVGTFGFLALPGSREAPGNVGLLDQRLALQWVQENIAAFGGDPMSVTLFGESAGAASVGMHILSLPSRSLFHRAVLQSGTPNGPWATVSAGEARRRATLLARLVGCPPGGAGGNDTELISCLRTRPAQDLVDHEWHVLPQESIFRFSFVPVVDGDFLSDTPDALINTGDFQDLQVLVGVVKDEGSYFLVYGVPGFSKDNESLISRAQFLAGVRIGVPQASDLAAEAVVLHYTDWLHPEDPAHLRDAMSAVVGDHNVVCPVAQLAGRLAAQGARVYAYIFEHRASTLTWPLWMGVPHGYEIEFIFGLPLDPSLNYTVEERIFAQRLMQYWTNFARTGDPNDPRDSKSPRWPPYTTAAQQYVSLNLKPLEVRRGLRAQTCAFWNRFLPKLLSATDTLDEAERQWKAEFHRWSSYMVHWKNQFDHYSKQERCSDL

Molecular target: Acetylcholinesterase (Rattus norvegicus, UniProt P37136)
Experiment: Effect on Acetylcholinesterase activity in rat brain homogenates

Work on CC[N+](C)(CC)CC(=O)CCN1C(=O)CCC1=O yielded an IC50 of 170 µM.
